From patent US20260199309A1, “COMPOUNDS FOR THE TREATMENT OF CENTRA NERVOUS SYSTEM DISORDERS” (Autifony Therapeutics Limited, priority 2022, published 2026)

By UniProt entry, the sequences of proteins in these tests, tags left out.
UniProt P48547, whole entry: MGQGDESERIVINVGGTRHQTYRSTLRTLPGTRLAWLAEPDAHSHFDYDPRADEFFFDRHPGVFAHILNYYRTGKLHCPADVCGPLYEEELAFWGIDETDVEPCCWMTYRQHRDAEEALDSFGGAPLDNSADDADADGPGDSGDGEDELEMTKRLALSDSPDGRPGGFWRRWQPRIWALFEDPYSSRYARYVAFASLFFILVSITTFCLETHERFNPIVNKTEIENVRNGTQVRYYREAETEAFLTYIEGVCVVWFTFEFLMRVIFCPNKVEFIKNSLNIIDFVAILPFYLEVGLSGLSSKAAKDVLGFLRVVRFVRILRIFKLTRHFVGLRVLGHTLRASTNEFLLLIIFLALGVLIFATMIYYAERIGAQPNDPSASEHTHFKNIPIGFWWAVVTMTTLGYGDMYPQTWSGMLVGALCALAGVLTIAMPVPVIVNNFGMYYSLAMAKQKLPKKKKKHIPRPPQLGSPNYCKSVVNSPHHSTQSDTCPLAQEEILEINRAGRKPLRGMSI

Each molecule was assayed against human Kv3.1 channels (hKv3.1) (Homo sapiens, UniProt P48547) (assay: Kv3.1 channel modulation, IonWorks Quattro planar array electrophysiology). Settings: HEK-293 cells expressing human Kv3.1; currents at −15 mV voltage step; normalised to 50 microM reference compound and vehicle.
From the text: The ability of the compounds of the invention to modulate the voltage-gated potassium channel subtypes Kv3.3/Kv3.2/Kv3.1 may be determined using the following assay. Analogous methods may be used to investigate the ability of the compounds of the invention to modulate other channel subtypes.
To assess compound effects on human Kv3.1 channels (hKv3.1): Human embryonic kidney (HEK)-hKv3.1 cell line is generated by transfecting HEK-293 cells with an expression vector with human Kv3.1 (NM_004976.4). Cells are cultured with MEM supplemented with 10% Heat-Inactivated FBS, 2 mM L-glutamine, 1% Penicillin-Streptomycin, and 0.6 mg/ml of Geneticin (G418). HEK-hKv3.1b cells were amplified in T175 cm2 flask at 37° C. with 5% C02, using MEM amplification medium, containing the G418 selection antibiotic (0.6 mg/ml). Cells were detached every 3-4 days, using DPBS to wash twice the flask, then TrypLE to dislodge the cells, and re-plated at a density of 2-4×10^6 cells/flask.
The day of the experiment, cells are removed from the incubator and the culture medium removed. Cells are washed with 5 ml of Dulbecco's PBS (DPBS) calcium and magnesium free and detached by the addition of 3 ml Versene (Invitrogen, Italy) followed by a brief incubation at 37° C. for 5 minutes. The flask is tapped to dislodge cells and 10 ml of DPBS containing calcium and magnesium is added to prepare a cell suspension. The cell suspension is then placed into a 15 ml centrifuge tube and centrifuged for 2 min at 1200 rpm. After centrifugation, the supernatant is removed and the cell pellet re-suspended in 4 ml of DPBS containing calcium and magnesium using a 5 ml pipette to break up the pellet. Cell suspension volume is then corrected to give a cell concentration for the assay of approximately 3 million cells per ml.
Experiments are conducted at r.t. using IonWorks Quattro™ planar array electrophysiology technology (Molecular Devices Corp.) with PatchPlate™ PPC. […] Planar electrode hole resistances (Rp) are determined by applying a 10 mV voltage step across each well. […]
For `CC1(C)NC(=O)N(c2cnc(Oc3cccc(OC(F)(F)F)c3)cc2N)C1=O`, the “Kv3.1 pEC50” value was 4.6.
For `CC1(C)NC(=O)N(c2cnc(Oc3cccc(OC(F)(F)F)c3)c(N)c2)C1=O`, the “Kv3.1 pEC50” value was 4.6.
`Cc1ccc(Oc2cc(N)c(N3C(=O)NC(C)(C)C3=O)cn2)c2c1OCC21CC1` was tested, and the “Kv3.1 pEC50” value was 5.0.
